# Where two headings read alike, the source gives them in different places.
# Tests used:
# [1] = HPLC measurement of MG concentration in whole brain after i.p. MG; format: in vivo, mouse; conditions: vehicle = 100
# Description: MG concentration was measured by HPLC as previously described with modifications (Dhar 2009). Tissue was homogenized in 50 mM sodium phosphate buffer (pH 6.6) and 0.8N perchloric acid. It was then incubated on ice for 10 minutes and centrifuged. The supernatant was filtered, and MG was derivatized with 10 mM o-phenylenediamine to form 2-methylquinoxaline (2-MQ). 5-methylquinoxaline (5-MQ, 15 μM) was spiked into each sample as an internal standard. 2-MQ was quantified using an HP 1100 HPLC system (Agilent) with a Nova-Pak C18 column (Waters Corporation). Column effluent was monitored at 315 nm. 2-MQ concentration was determined by comparison to 2-MQ standards of known mass. Quantification of 2-MQ was corrected for losses by comparison with 5-MQ. MG concentration was calculated as 2-MQ/tissue weight. Treatment: Unless otherwise noted, crude MG was used for all behavioral experiments. MG was obtained from Sigma-Aldrich, filter-sterilized (0.22 μm filter, Millipore), diluted in vehicle (0.9% NaCl), and adjusted to pH 7.4. Mice were injected i.p. with 10 ml/kg MG or vehicle. HPLC: Ten minutes post-injection, mice were sacrificed, and brains were rapidly dissected and flash-frozen on dry ice. MG concentration was measured as described above.
# [2] = test system: GABAA receptors in cerebellar granule neurons; experiment: Whole-cell patch clamp in cerebellar granule neurons (CGN); format: cell-based, rat
# [3] = test system: GABAA receptors in hippocampal neurons; experiment: Whole-cell patch clamp in hippocampal neurons (HN); format: cell-based, rat
# [4] = test system: apoptosis in the brain; conditions: 24 hours after treatment
# [5] = 100 μM MG + 100 μM GABA vs 100 μM GABA alone
compound,measurement,setting,value
"CC(=O)C=O [MG, methylglyoxal]",Relative MG concentration (%),[1]; MG 50 mg/kg i.p.,115.75%
same,Relative MG concentration (%),[1]; MG 100 mg/kg i.p.,127.40%
same,Relative MG concentration (%),[1]; MG 300 mg/kg i.p.,160.94%
same,"current on co-application with GABA, relative to GABA alone, in CGN",[2]; [5],approximately 60%
same,relative amplitude of MG-evoked current versus GABA in CGN,[2]; 100 μM MG vs 100 μM GABA,approximately one-third the magnitude of that elicited by 100 μM GABA
same,"Hill co-efficient, depolarization of CGN",[2]; whole-cell current clamp,1.17
same,"Hill co-efficient, inward currents in CGN",[2]; whole-cell voltage clamp,1.13
same,"Hill co-efficient, currents in hippocampal neurons",[3],1.05
same,"current on co-application with GABA, relative to GABA alone, in hippocampal neurons",[3]; [5],approximately 60%
same,apoptosis in the brain (TUNEL),[4]; MG 50 mg/kg i.p.,no evidence of increased apoptosis
same,apoptosis in the brain (TUNEL),[4]; MG 300 mg/kg i.p.,non-significantly increased apoptosis
